# System: souris Swiss
# Assay: Oral (intragastric) toxicity, mortality in mice
# Format: in vivo
# Conditions: mouse, solvent as in the source
# Text: La mortalité induite par ces substances a été déterminée chez la souris Swiss exempte d'organismes pathogènes spécifiques. Les animaux sont stabulés en salle climatisée 24 à 48 heures avant le début de l'expérimentation. Les substances sont administrées soit par voie intragastrique en solution dans de l'huile d'olive ou du tween, soit par voie intrapéritonéale en solution dans du tween. Les résultats sont exprimés dans les tableaux I et II par le pourcentage de mortalité en fonction de la dose administrée ou par la dose induisant 50 % de mortalité (DL 50) déterminée par la méthode de Bliss.
substance,measurement,setting,value
(phényl-4pipérazinyléthyl)-2 N-pyridylidène-3 aniline [COR 3412],% de mortalité en fonction de la dose exprimée en mg/kg,dose 1000 mg/kg,0-10%
same,% de mortalité en fonction de la dose exprimée en mg/kg,dose 1500 mg/kg,0%

# From patent EP0078757A1, “Imines of 2-(4-phenyl-piperazinylethyl) anilines, process for their preparation and their use in medicine” (CORTIAL S.A., priority 1981, dated 1983)
